Test results: ChEMBL document CHEMBL1151884, “Nuclease resistant methylphosphonate-DNA/LNA chimeric oligonucleotides” (2009)

Test: Stability assessed as degradation in presence of snake venom phosphodiesterase

SMILES | Stability
Cc1cn([C@@H]2O[C@@]3(COP(=O)(O)O[C@H]4C[C@H](n5cnc6c(N)ncnc65)O[C@@H]4COP(=O)(O)O[C@H]4C[C@H](n5cnc6c(=O)[nH]c(N)nc65)O[C@@H]4COP(=O)(O)O[C@H]4[C@H]5OC[C@]4(COP(=O)(O)O[C@H]4C[C@H](n6cnc7c(=O)[nH]c(N)nc76)O[C@@H]4CO)O[C@H]5n4cc(C)c(=O)[nH]c4=O)CO[C@@H]2[C@@H]3OP(=O)(O)OC[C@H]2O[C@@H](n3cnc4c(N)ncnc43)C[C@@H]2OP(=O)(O)OC[C@@]23CO[C@@H]([C@H](n4cc(C)c(=O)[nH]c4=O)O2)[C@@H]3OP(=O)(O)OC[C@H]2O[C@@H](n3cnc4c(=O)[nH]c(N)nc43)C[C@@H]2OP(=O)(O)OC[C@H]2O[C@@H](n3ccc(N)nc3=O)C[C@@H]2O)c(=O)[nH]c1=O | Stable
Cc1cn([C@H]2C[C@H](OP(=O)(O)OC[C@H]3O[C@@H](n4cnc5c(N)ncnc54)C[C@@H]3OP(C)(=O)OC[C@H]3O[C@@H](n4cc(C)c(=O)[nH]c4=O)C[C@@H]3OP(=O)(O)OC[C@H]3O[C@@H](n4cnc5c(=O)[nH]c(N)nc54)C[C@@H]3OP(C)(=O)OC[C@H]3O[C@@H](n4ccc(N)nc4=O)C[C@@H]3O)[C@@H](COP(C)(=O)O[C@H]3C[C@H](n4cnc5c(N)ncnc54)O[C@@H]3COP(C)(=O)O[C@H]3C[C@H](n4cnc5c(=O)[nH]c(N)nc54)O[C@@H]3COP(=O)(O)O[C@H]3C[C@H](n4cc(C)c(=O)[nH]c4=O)O[C@@H]3COP(C)(=O)O[C@H]3C[C@H](n4cnc5c(=O)[nH]c(N)nc54)O[C@@H]3CO)O2)c(=O)[nH]c1=O (stereo partly specified) | Stable
Cc1cn([C@@H]2O[C@@]3(COP(C)(=O)O[C@H]4C[C@H](n5cnc6c(N)ncnc65)O[C@@H]4COP(C)(=O)O[C@H]4C[C@H](n5cnc6c(=O)[nH]c(N)nc65)O[C@@H]4COP(=O)(O)O[C@H]4[C@H]5OC[C@]4(COP(C)(=O)O[C@H]4C[C@H](n6cnc7c(=O)[nH]c(N)nc76)O[C@@H]4CO)O[C@H]5n4cc(C)c(=O)[nH]c4=O)CO[C@@H]2[C@@H]3OP(=O)(O)OC[C@H]2O[C@@H](n3cnc4c(N)ncnc43)C[C@@H]2OP(C)(=O)OC[C@@]23CO[C@@H]([C@H](n4cc(C)c(=O)[nH]c4=O)O2)[C@@H]3OP(=O)(O)OC[C@H]2O[C@@H](n3cnc4c(=O)[nH]c(N)nc43)C[C@@H]2OP(C)(=O)OC[C@H]2O[C@@H](n3ccc(N)nc3=O)C[C@@H]2O)c(=O)[nH]c1=O (stereo partly specified) | Stable
Cc1cn([C@H]2C[C@H](OP(=O)(O)OC[C@H]3O[C@@H](n4cnc5c(=O)[nH]c(N)nc54)C[C@@H]3OP(=O)(O)OC[C@H]3O[C@@H](n4ccc(N)nc4=O)C[C@@H]3O)[C@@H](COP(C)(=O)O[C@H]3C[C@H](n4cnc5c(N)ncnc54)O[C@@H]3COP(=O)(O)O[C@H]3C[C@H](n4cc(C)c(=O)[nH]c4=O)O[C@@H]3COP(=O)(O)O[C@H]3C[C@H](n4cnc5c(N)ncnc54)O[C@@H]3COP(C)(=O)O[C@H]3C[C@H](n4cnc5c(=O)[nH]c(N)nc54)O[C@@H]3COP(=O)(O)O[C@H]3C[C@H](n4cc(C)c(=O)[nH]c4=O)O[C@@H]3COP(=O)(O)O[C@H]3C[C@H](n4cnc5c(=O)[nH]c(N)nc54)O[C@@H]3CO)O2)c(=O)[nH]c1=O (stereo partly specified) | Stable
Cc1cn([C@@H]2O[C@@]3(COP(C)(=O)O[C@H]4C[C@H](n5cnc6c(N)ncnc65)O[C@@H]4COP(=O)(O)O[C@H]4[C@H]5OC[C@]4(COP(=O)(O)O[C@H]4C[C@H](n6cnc7c(N)ncnc76)O[C@@H]4COP(C)(=O)O[C@H]4C[C@H](n6cnc7c(=O)[nH]c(N)nc76)O[C@@H]4COP(=O)(O)O[C@H]4[C@H]6OC[C@]4(COP(=O)(O)O[C@H]4C[C@H](n7cnc8c(=O)[nH]c(N)nc87)O[C@@H]4CO)O[C@H]6n4cc(C)c(=O)[nH]c4=O)O[C@H]5n4cc(C)c(=O)[nH]c4=O)CO[C@@H]2[C@@H]3OP(=O)(O)OC[C@H]2O[C@@H](n3cnc4c(=O)[nH]c(N)nc43)C[C@@H]2OP(=O)(O)OC[C@H]2O[C@@H](n3ccc(N)nc3=O)C[C@@H]2O)c(=O)[nH]c1=O (stereo partly specified) | Stable
Cc1cn([C@H]2C[C@H](OP(=O)(O)OC[C@H]3O[C@@H](n4cnc5c(=O)[nH]c(N)nc54)C[C@@H]3OP(=O)(O)OC[C@H]3O[C@@H](n4ccc(N)nc4=O)C[C@@H]3O)[C@@H](COP(=O)(O)O[C@H]3C[C@H](n4cnc5c(N)ncnc54)O[C@@H]3COP(=O)(O)O[C@H]3C[C@H](n4cc(C)c(=O)[nH]c4=O)O[C@@H]3COP(=O)(O)O[C@H]3C[C@H](n4cnc5c(N)ncnc54)O[C@@H]3COP(=O)(O)O[C@H]3C[C@H](n4cnc5c(=O)[nH]c(N)nc54)O[C@@H]3COP(=O)(O)O[C@H]3C[C@H](n4cc(C)c(=O)[nH]c4=O)O[C@@H]3COP(=O)(O)O[C@H]3C[C@H](n4cnc5c(=O)[nH]c(N)nc54)O[C@@H]3CO)O2)c(=O)[nH]c1=O | Stable
